# Assay outcomes: PubChem BioAssay, Broad Institute
# Statin myotox sup = suppressors of simvastatin-induced myotoxicity in C2C12 myotubes; ATP luminescence, 48 h; scaled: DMSO 0, geranylgeraniol control 100; rescue of ATP level, % at 7.49 µM; 0.78% of 330,000 active; AID 602340;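 active = mean ATP rescue above about 67%, or every replicate alone reaching that limit, limit read from the data, passing the limit was not always enough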;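 also: myotubes were challenged with 10 µM simvastatin during compound exposure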
# esBAF inh = inhibitors of esBAF chromatin remodeling in mouse ES cells; Bmi1-luciferase knock-in reporter, 24 h; 100% = twice the neutral-well signal; 2% of 350,000 active; AID 602393; reporter increase, % at 12.5 µM; in the data active = activation above about 40%;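 also: 0% = median of the plate's neutral control wells and 100% = double that signal; a rise in the Bmi1 reporter signal indicates esBAF inhibition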
# E-sel inducer = induces E-selectin expression in human endothelial cells; P16581; HUVEC E-selectin immunofluorescence imaging; normalized: neutral wells 0, TNF-alpha wells 100; activation, % at 7.58 µM; 0.37% of 260,000 active;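 active = mean E-selectin-positive cell signal at least 10% of the positive control, reached in at least 60% of replicates, without over 20% cell loss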
#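 Read-out basis: % PE-positive cells; Test system: HUVEC primary endothelial cells; Technique: immunofluorescence imaging; Dosing: single-point compound dose.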
# PglD inh = inhibitors of Campylobacter jejuni PglD acetyltransferase | purified PglD enzyme, DTNB colorimetric CoA detection | inhibition, % at 12.5 µM | 0.098% of 360,000 active | AID 602405; in the data active = inhibition above about 16%, passing the limit was not always enough
# PGC1a acetyl inh = lowers PGC1a acetylation signal in U2OS cells. AlphaScreen anti-acetyl-lysine; with virally co-expressed GCN5 acetyltransferase. inhibition, % at 15.6 µM. 0.17% of 350,000 active. AID 651687;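 active = every replicate shows inhibition of at least 40%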;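 also: 0% = neutral control wells and 100% = positive control wells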
# UUG fidelity = alters start codon recognition fidelity in yeast | S. cerevisiae UUG-firefly luciferase reporter, luminescence/redox ratio | activity score, % at 18.7 µM | hit rate 0.13% among 350,000 | AID 602363;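 active means replicate mean at a twofold rise or more, about +100% in these data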;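 further: firefly luciferase made from a UUG start codon reports start codon fidelity; reporter light over untreated wells divided by growth signal over untreated wells; some hits fall short of that in this replicate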
# * = called active by the depositor; . = not tested or not shown. This is a sample that favours compounds with a hit; in the whole collection about 2.8% have one here.
entry	SMILES	PGC1a acetyl inh	esBAF inh	E-sel inducer	PglD inh	Statin myotox sup	UUG fidelity
1	Cc1cc2oc(C(=O)Nc3nonc3C)c(C)c2cc1Cl	11	44*	0	0	-5	-3
2	COc1ccc2c3c([nH]c2c1)[C@H](CO)N(Cc1ccccc1OC)CC31CN(C)C1	10	.	2	.	.	.
3	O=C(Oc1ccc[nH]c1=O)c1cc([N+](=O)[O-])cc([N+](=O)[O-])c1	53*	-9	0	6	0	-16
4	C[C@H]1CN([C@@H](C)CO)C(=O)c2cc(NC(=O)c3ccncc3)ccc2O[C@@H]1CN(C)C(=O)Nc1cccc2ccccc12	3	-4	9	-1	14	-7
5	CC(C)NC(=O)N(C)C[C@@H]1OCCCC[C@@H](C)Oc2ccc(NC(=O)Cc3ccccc3)cc2C(=O)N([C@@H](C)CO)C[C@@H]1C	-3	.	0	-2	.	.
6	C[C@@H]1CN([C@@H](C)CO)C(=O)Cc2cc(NS(=O)(=O)c3ccc(F)cc3)ccc2O[C@@H]1CN(C)C(=O)Nc1ccc2c(c1)OCO2	-10	3	0	.	-6	.
7	CC(C)c1ccc(Nc2ncccc2C(=O)O)cc1	2	60*	.	1	1	8
8	C[C@H](CO)N1C[C@H](C)[C@H](CN(C)Cc2ccccc2)Oc2c(NS(=O)(=O)c3ccc(Cl)cc3)cccc2C1=O	-1	-3	0	6	-2	0
9	COc1ccc2c(COC(=O)c3n[nH]c4ccccc34)cc(=O)oc2c1	0	46*	.	-4	5	-16
10	Cc1cc2oc(=O)cc(COC(=O)c3n[nH]c4ccccc34)c2cc1C	11	34	.	1	8	-2
11	CCn1c(O)c(/C=C2\C=Nc3ccccc32)sc1=O	.	77*	1	-11	.	1
12	Oc1nc(Nc2ccccc2)sc1/C=C1\C=Nc2ccccc21	-12	61*	.	2	-9	-5
13	O=C1CN(S(=O)(=O)c2ccccc2)C[C@@H]2[C@H](c3ccc(C#Cc4ccccc4)cc3)[C@H](CO)N12	-8	.	-1	.	.	.
14	O=C(Nc1ccon1)c1sc2cc(F)ccc2c1Cl	-6	71*	.	-3	-9	1
15	O=C(NCc1ccco1)c1cccc(F)c1	-9	-1	.	1	-2	-2
16	O=C(NCc1ccco1)c1sc2cc(F)ccc2c1Cl	-11	53*	.	-3	4	-18
17	CCNC(=O)c1sc2cc(C)ccc2c1Cl	.	24*	.	-11	.	1
18	Cc1ccc2c(Cl)c(C(=O)Nc3cc(C)on3)sc2c1	11	60*	.	2	6	-21
19	CCCN(C)C[C@@H]1OCc2cn(nn2)CCCC(=O)N([C@H](C)CO)C[C@@H]1C	9	-3	0	1	-11	5
20	CO[C@@H]1CN(C)C(=O)c2cc(NC(=O)NC(C)C)ccc2OC[C@@H](C)N(S(C)(=O)=O)C[C@@H]1C	7	.	0	.	.	.

# Four of the compounds above, in transposed form:
11: CCn1c(O)c(/C=C2\C=Nc3ccccc32)sc1=O
1: Cc1cc2oc(C(=O)Nc3nonc3C)c(C)c2cc1Cl
4: C[C@H]1CN([C@@H](C)CO)C(=O)c2cc(NC(=O)c3ccncc3)ccc2O[C@@H]1CN(C)C(=O)Nc1cccc2ccccc12
6: C[C@@H]1CN([C@@H](C)CO)C(=O)Cc2cc(NS(=O)(=O)c3ccc(F)cc3)ccc2O[C@@H]1CN(C)C(=O)Nc1ccc2c(c1)OCO2
Screen / compound no.	11	1	4	6
PGC1a acetyl inh	.	11	3	-10
esBAF inh	77*	44*	-4	3
E-sel inducer	1	0	9	0
PglD inh	-11	0	-1	.
Statin myotox sup	.	-5	14	-6
UUG fidelity	1	-3	-7	.

# The results go on:
entry	SMILES	PGC1a acetyl inh	esBAF inh	E-sel inducer	PglD inh	Statin myotox sup	UUG fidelity
21	O=C(CC(F)(F)F)N1C[C@@H]2[C@H](c3ccccc31)[C@H](CO)N2C(=O)C1CCCC1	-17	1	0	10	-4	43
22	Cc1nc(NC(=O)c2oc3ccccc3c2C)sc1C(=O)N(C)C	-2	62*	.	-2	2	-10
23	CCCCc1nnc(NC(=O)c2oc3ccccc3c2C)s1	.	63*	5	.	1	.
24	C[C@@H]1CCCCO[C@@H](CN(C)C(=O)CCCN(C)C)[C@@H](C)CN([C@H](C)CO)C(=O)c2cc(NC(=O)Nc3ccccc3)ccc2O1	-10	0	1	-3	.	-2
25	COc1ccc(C#Cc2ccc([C@H]3[C@H]4CN(C(=O)c5ccncc5)CCCCN4[C@H]3CO)cc2)cc1	10	21	0	2	98*	7
26	COc1ccc(C#Cc2ccc([C@@H]3[C@H]4CN(C(=O)c5ccncc5)CCCCN4[C@H]3CO)cc2)cc1	2	9	0	-6	-2	-3
27	O=C(Nc1cc(F)ccc1F)N[C@@H]1C=C[C@H](CC(=O)N2CCc3ccccc3C2)O[C@H]1CO	11	-6	0	1	17	13
28	O=C1CC(NS(=O)(=O)c2cccs2)CN1c1ccc(F)cc1 (stereo not drawn)	-1	47*	0	.	12	.
29	CCOc1ccc(N2CC(NS(=O)(=O)c3cccs3)CC2=O)cc1 (stereo not drawn)	.	7	18	3	6	20
30	C[C@@H]1CN([C@H](C)CO)S(=O)(=O)c2ccc(-c3cncnc3)cc2O[C@H]1CN(C)Cc1ccncc1	10	0	0	-2	-12	-16
31	COCC(=O)Nc1ccc2c(c1)[C@H]1C[C@@H](CC(=O)NCCc3ccccc3)O[C@H](CO)[C@H]1O2	-4	4	0	5	-2	0
32	C[C@H]1CN([C@@H](C)CO)C(=O)c2cc(NS(=O)(=O)c3ccc(Cl)cc3)ccc2O[C@@H]1CN(C)S(=O)(=O)c1cn(C)cn1	5	1	-5	2	-7	7
33	c1ccc2c(c1)-c1nc3ccccc3cc1C2N1CCCCC1 (stereo not drawn)	.	.	0	3	.	-14
34	O=c1cccc2n1Cc1cc3ccccc3nc1-2	1	53*	0	1	10	-13
35	CCOC(=O)N1CCN(C(=O)CN(Cc2ccccc2)S(=O)(=O)c2ccc(OC)c(Cl)c2)CC1	-13	-3	.	-1	123*	4
36	CCOC(=O)N1CCN(C(=O)CN(Cc2ccccc2)S(=O)(=O)c2ccc(OC)c(C)c2)CC1	-6	.	.	1	.	-2
37	C[C@@H]1CN([C@H](C)CO)S(=O)(=O)c2ccc(-c3cccc(C#N)c3)cc2O[C@H]1CN(C)C	-10	-9	0	2	-5	21
38	COC(=O)c1ccc(CN2CC(=O)N3[C@H](CO)[C@@H](c4ccc(Br)cc4)[C@@H]3C2)cc1	15	.	0	.	.	.
39	O=S(=O)(NCCOCC(F)(F)C(F)F)c1ccc2oc3ccccc3c2c1	12	.	.	.	.	-1
40	COc1ccc(OCCNS(=O)(=O)c2ccc3oc4ccccc4c3c2)cc1	4	3	.	4	101*	-10

# Next entries:
entry	SMILES	PGC1a acetyl inh	esBAF inh	E-sel inducer	PglD inh	Statin myotox sup	UUG fidelity
41	CC(C)NC(=O)N1CC(=O)N2[C@H](CO)[C@@H](c3ccc(/C=C/c4ccccc4)cc3)[C@H]2C1	-5	.	0	.	.	.
42	CCC(C)c1ccc(NC(=O)Nc2cccnc2)cc1 (stereo not drawn)	-2	61*	0	-1	-42	-19
43	CCC(C)c1ccc(NC(=O)NCc2cccnc2)cc1 (stereo not drawn)	.	2	.	8	-28	-21
44	C[C@@H]1CN([C@@H](C)CO)C(=O)c2cc(C#Cc3cccc(F)c3)cnc2O[C@H]1CN(C)C(=O)C1CCC1	-4	-1	-1	-3	23	1
45	CN(CC(=O)Nc1ccc(Cl)c(Cl)c1)C1CCCCC1	.	1	75*	8	2	-10
